Assay results taken from article PMC5049494, “Nitrotriazole-based acetamides and propanamides with broad spectrum antitrypanosomal activity” (European Journal of Medicinal Chemistry, 2016).

What was measured:
Type in all cases: cell-based
[1] = test system: T. cruzi, strain Tulahuen C4 amastigotes; assay: In vitro activity against T. cruzi; settings: IC50 in L6 cells/IC50 in T. cruzi
[2] = test system: T.b. rhodesiense, strain STIB 900 trypomastigotes; assay: In vitro activity against T. b. rhodesiense
Procedure: Compounds in Table 1 were screened for anti-parasitic activity against three trypanosomatids: T. cruzi, T. b. rhodesiense and Leishmania donovani and compared with previously made analogs shown in orange and designated with a. The concentration of compound that inhibits parasite growth by 50% (IC50) was calculated from dose response curves for each parasite (Table 1). In addition, compounds were tested for toxicity in L6 rat skeletal myoblasts, the host cells for T. cruzi amastigotes, in order to calculate a selectivity index for each parasite [SI = IC50L6/IC50parasite] (Table 1). The TDR (Special Programme for Research and Training in Tropical Diseases, World Health Organization) criteria were adopted to interpret antiparasitic activity and selectivity.
In vitro activity against T. cruzi, T. b. rhodesiense, L. donovani and cytotoxicity assessment using L6 cells (rat skeletal myoblasts) was determined using a 96-well plate format as previously described. Data were analyzed with the graphic program Softmax Pro (Molecular Devices, Sunnyvale, CA, USA), which calculated IC50 values by linear regression from the sigmoidal dose inhibition curves.

[3] = test system: L. donovani axenic, strain MHOM-ET-67/L82 amastigotes; assay: In vitro activity against L. donovani; settings: IC50 in L6 cells/IC50 in L. donovani
[4] = test system: bloodstream form T.b. brucei recombinant parasites expressing wild type (-tet) or elevated (+tet) levels of TbNTR; settings: ratio of IC50 values -tet/+tet

Row | SMILES | SI (T. c.) [1] | SI (T.b.r.) ([2]; IC50 in L6 cells/IC50 in T.b. rhodesiense) | fold more potent against T. b. rhodesiense than the corresponding acetamide ([2]; propanamide vs acetamide analog) [fold] | SI (L.d.) [3] | Ratio –tet/+tet [4]
1 | O=C(CCn1cnc([N+](=O)[O-])n1)Nc1ccc(Oc2ccc(F)cc2)cc1 [Compound 7, N-(4-(4-fluorophenoxy)phenyl)-3-(3-nitro-1H-1,2,4-triazol-1-yl)propanamide] | 579 | 140 | 12 | 20 | 
2 | O=C(CCn1cnc([N+](=O)[O-])n1)Nc1ccc(Oc2ccccc2)cc1 [Compound 8, 3-(3-Nitro-1H-1,2,4-triazol-1-yl)-N-(4-phenoxyphenyl)propanamide] |  |  |  |  | 3.6
3 | N#Cc1ccc(-c2ccc(NC(=O)CCn3cnc([N+](=O)[O-])n3)cc2)cc1 [Compound 9, N-(4′-cyano-[1,1′-biphenyl]-4-yl)-3-(3-nitro-1H-1,2,4-triazol-1-yl)propanamide] |  |  |  |  | 4.7
